Test results from PubChem BioAssay AID694 (Emory University Molecular Libraries Screening Center, 2007).
Values joined by “and” are separate entries in the source; they are usually repeats but may differ in a detail not shown here. Equal entries are not always repeated. This is a selection; strong and weak results do not stand in their true shares. Active and inactive are the calls of the source. No rule for the calls is given here.

The chains behind the UniProt entries cited, without tags or fusion partners.
UniProt P03372, whole entry, looked up: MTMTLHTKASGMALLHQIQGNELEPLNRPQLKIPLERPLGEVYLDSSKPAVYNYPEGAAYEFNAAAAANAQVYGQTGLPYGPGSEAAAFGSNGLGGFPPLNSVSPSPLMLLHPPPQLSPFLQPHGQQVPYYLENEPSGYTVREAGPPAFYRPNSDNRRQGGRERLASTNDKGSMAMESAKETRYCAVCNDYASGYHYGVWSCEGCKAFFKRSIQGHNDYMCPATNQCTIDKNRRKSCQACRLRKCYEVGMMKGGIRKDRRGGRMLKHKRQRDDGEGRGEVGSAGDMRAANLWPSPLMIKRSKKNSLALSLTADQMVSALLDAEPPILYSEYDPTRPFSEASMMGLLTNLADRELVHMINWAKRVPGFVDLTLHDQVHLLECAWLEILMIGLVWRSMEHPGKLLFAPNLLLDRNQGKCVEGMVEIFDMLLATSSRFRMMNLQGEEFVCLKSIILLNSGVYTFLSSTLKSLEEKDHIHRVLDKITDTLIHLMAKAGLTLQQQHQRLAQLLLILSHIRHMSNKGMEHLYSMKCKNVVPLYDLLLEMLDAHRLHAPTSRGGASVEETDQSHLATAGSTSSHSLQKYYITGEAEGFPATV

Each compound was assayed against Estrogen receptor (Homo sapiens) (UniProt P03372) (assay: blockers of coactivator recruitment to ERα – biochemical, LOPAC library, TR-FRET, primary screen (AID 694;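 also: receptor was agonist-bound with estradiol present during the assay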)). Conditions: TR-FRET ERalpha-coactivator peptide binding, at 45 µM, stronger effect = higher value.

| SMILES | inhibition |
| --- | --- |
| CN(C(=O)Cc1ccc(Cl)c(Cl)c1)[C@H]1CCCC[C@@H]1N1CCCC1 | inactive: -0.26% and inactive: 5.53% |
| CN(C(=O)Cc1ccc(Cl)c(Cl)c1)[C@@H]1CCCC[C@@H]1N1CCCC1 | inactive: 2.59% |
| CN(C(=O)Cc1ccc(Cl)c(Cl)c1)[C@@H]1CC[C@]2(CCCO2)C[C@H]1N1CCCC1 | inactive: -4.69% |
| CN(C(=O)Cc1ccccc1)[C@@H]1CC[C@]2(CCCO2)C[C@H]1N1CCCC1 | inactive: -3.64% |
| CN(C(=O)Cc1ccc(Cl)c(Cl)c1)[C@@H]1CCCC[C@H]1N1CCCC1 | inactive: 1.3% |
| CN(CCCl)Cc1cc(Cl)c(NC2=NCCN2)c(Cl)c1 | inactive: 13.6% |
| CC(Cc1ccc(O)cc1)NCC(O)c1cc(O)cc(O)c1 (configuration not stated) | inactive: -4.18% |
